SMILES strings stand for the structures. Only a part is listed here, and it is no random draw. Some tests of the compounds listed are not included; inactive here does not mean inactive elsewhere. The source made the active and inactive calls.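 How the source made its calls: active means inhibition above the mean inhibition of all tested compounds plus 3 SD (cut at about 17% in these data); inactive means the rest.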

This assay has as its target Troponin I, cardiac muscle (Homo sapiens) + Troponin T, cardiac muscle (Homo sapiens) + Troponin C, slow skeletal and cardiac muscles (Homo sapiens) (UniProt P19429+P45379+P63316). In words: calcium desensitizers of cardiac thin filaments – biochemical, IANBD-TnC fluorescence, EC70 calcium, primary screen (AID 493244). Particulars: IANBD-labeled cardiac RTF, Ca2+ fluorescence; at 7.15 µM; hits give high values.
What is called inhibition is the relative decrease from the control value, in per cent. Consider `O=C(OC1CN2CCC1CC2)C(CO)(c1ccccc1)c1ccccc1` (stereo not given), for which the inhibition was inactive: -12.2%.
Under `CN(C)c1cccc(C(=O)NCC2(N(C)C)CCCCC2)c1` stands inactive: -5.61%; under `CC(C)Oc1ccc(C(=O)NCC2(N(C)C)CCCCC2)cc1`, inactive: -0.72%.
Under `O=C(OCCN1CCCC1)C(O)(c1ccccc1)c1ccccc1` stands inactive: -8.31%; under `COc1ccc(Br)c(C(=O)NCC2(N3CCCCC3)CCCCC2)c1`, inactive: 3.99%; under `COc1cc(C(=O)NCC2(N(C)C)CCCCC2)c([N+](=O)[O-])cc1OC`, inactive: -11.2%.
Under `CN(C)C1(CNC(=O)c2ccc(Br)cc2)CCCCC1` stands inactive: 1.56%; under `O=C(NCC1(N2CCCCC2)CCCCC1)c1cccc(Cl)c1`, inactive: 2.73%; under `COc1cccc(C(=O)NCC2(N3CCCCC3)CCCCC2)c1`, inactive: -7.83%.
As to `COc1ccc(Cl)cc1C(=O)NCC1(N(C)C)CCCCC1`, the inhibition is inactive: -2%.
On to `Cc1ccccc1C(=O)NCC1(N2CCCCC2)CCCCC1`, for which the inhibition was inactive: 5.19%.
Under `CN(C)c1ccc(C(=O)NCC2(N(C)C)CCCCC2)cc1` stands inactive: 2.45%; under `CN(C)C1CCCC1OC(=O)C(O)(c1ccccc1)c1ccccc1` (stereo not given), inactive: 5.85%; under `CCN1CCCC(OC(=O)C2(O)c3ccccc3C=Cc3ccccc32)C1` (stereo not given), inactive: -4.99%.
Under `Cc1cc(C(=O)NCC2(N3CCCCC3)CCCCC2)ccc1[N+](=O)[O-]` stands inactive: -9.05%; under `O=C(NCC1(N2CCCCC2)CCCCC1)c1cccc(Br)c1`, inactive: -19%; under `COc1ccc(C(=O)NCC2(N(C)C)CCCCC2)cc1`, inactive: -13.2%.
Under `C=CCN1CCN(CCOC(=O)C(O)(c2ccccc2)c2ccccc2)CC1` stands inactive: -12.4%.
Consider `O=C(NCC1(N2CCCCC2)CCCCC1)c1cc(F)c(F)cc1Cl`, for which the inhibition was inactive: -12.6%.
Under `CN1[C@@H]2CC[C@H]1CC(OC(=O)C(O)(c1ccccc1)c1ccccc1)C2` (stereo not given in full) stands inactive: 0.72%; under `O=C(NCC1(N2CCCCC2)CCCCC1)c1cc([N+](=O)[O-])ccc1Cl`, inactive: 5.71%.
Under `Cc1ccc(C(=O)NCC2(N3CCCCC3)CCCCC2)cc1` stands inactive: -3.98%; under `CC(C)N1C(=O)CC2(CCN(CCOC(=O)C(O)(c3ccccc3)c3ccccc3)CC2)C1=O`, inactive: -5.78%.
With `CCN(CC)CC(C)C(C)OC(=O)C(O)(c1ccccc1)c1ccccc1` (stereo not given), the inhibition is inactive: -3.56%.
Under `COc1cc(SC)ccc1C(=O)NCC1(N(C)C)CCCCC1` stands inactive: -2.24%.

Values taken from PubChem BioAssay AID493244 (The Scripps Research Institute Molecular Screening Center, 2011).
